Test: Size-exclusion chromatography of Aβ fragments
Format: physicochemical
Settings: Superdex 75 column, PBS, indicates smaller dimers or monomers
Method: All peptides were purchased from Anaspec. All of the work reported herein was performed using one peptide lot. The APP319-335 peptide and RERMS peptides were reconstituted in PBS. The Aβ peptides were reconstituted by adding 30 µl of 100 mM sodium hydroxide to 0.5 mg of peptide. Once the peptides were fully dissolved, PBS was added to bring the concentration to 10–20 µM for Aβ1-40 or Aβ1-42. The more soluble Aβ fragments were diluted to 200 µM. […] In short, the aliquots of Aβ1-40 or Aβ1-42 were incubated at 37°C for variable times and then characterized using a calibrated Superdex 75 column with PBS as the running buffer. […] The incubation times for the 7-kDa Aβ1-40, 13-kDa Aβ1-40 or 13-kDa Aβ1-42, 70-kDa Aβ1-42 and 70-kDa Aβ1-40 and >200-kDa Aβ1-42 were 15 minutes, 30 minutes, 1 hour, 18 hours and 2 hours, respectively. To fragment the >200-kDa Aβ1-42 species, each 1 ml aliquot was sonicated for three pulses of 4 seconds at 60% of maximum amplitude. […] However, the optimal incubation times to produce each type of oligomer had to be determined empirically each time the oligomers were prepared. […]
The black line indicates the starting concentration and the gold line indicates the final concentration. The arrow indicates the direction of shift of the fluorescence peak. […] The arrow indicates the direction of shift of the fluorescence peak. […]

Amino acid sequences for entries named in this document (tags omitted). A change or cut given only in a name is not applied to a line headed by its entry.
UniProt P05067: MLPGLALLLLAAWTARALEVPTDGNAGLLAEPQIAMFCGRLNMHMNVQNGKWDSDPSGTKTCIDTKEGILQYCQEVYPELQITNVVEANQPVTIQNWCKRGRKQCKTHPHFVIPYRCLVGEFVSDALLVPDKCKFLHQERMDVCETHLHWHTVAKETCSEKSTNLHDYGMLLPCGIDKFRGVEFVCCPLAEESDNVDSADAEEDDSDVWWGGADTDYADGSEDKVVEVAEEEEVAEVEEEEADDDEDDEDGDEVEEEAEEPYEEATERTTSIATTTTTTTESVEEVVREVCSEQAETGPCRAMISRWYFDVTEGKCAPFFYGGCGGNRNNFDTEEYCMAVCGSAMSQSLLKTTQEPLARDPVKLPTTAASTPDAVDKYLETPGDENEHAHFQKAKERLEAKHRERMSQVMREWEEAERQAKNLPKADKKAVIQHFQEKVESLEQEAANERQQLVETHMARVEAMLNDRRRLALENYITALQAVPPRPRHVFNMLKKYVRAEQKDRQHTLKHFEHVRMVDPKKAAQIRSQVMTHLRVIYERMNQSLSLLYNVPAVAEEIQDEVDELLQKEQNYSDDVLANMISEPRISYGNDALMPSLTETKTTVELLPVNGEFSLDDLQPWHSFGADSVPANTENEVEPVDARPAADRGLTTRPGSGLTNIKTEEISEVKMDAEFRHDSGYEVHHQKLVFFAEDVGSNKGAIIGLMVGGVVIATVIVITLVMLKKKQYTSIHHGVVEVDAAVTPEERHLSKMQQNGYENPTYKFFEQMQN

In the case of “Aβ10-20: Aβ fragment (YEVHHQKLVFF; Amyloid-beta protein 42; UniProt P05067 681-691, looked up, fragment)”, the “elution later than the 7-kDa peak” value is reported as 0.5 mls.

— article PMC3386930, “Altering APP Proteolysis: Increasing sAPPalpha Production by Targeting Dimerization of the APP Ectodomain” (PLoS ONE, 2012)
